Measurements reported in US8993752B2, “Neprilysin inhibitors” (Theravance Biopharma R&D IP, LLC, priority 2011, dated 2015).

Amino acid sequences for entries named in this document (tags omitted).
UniProt P08473, whole entry: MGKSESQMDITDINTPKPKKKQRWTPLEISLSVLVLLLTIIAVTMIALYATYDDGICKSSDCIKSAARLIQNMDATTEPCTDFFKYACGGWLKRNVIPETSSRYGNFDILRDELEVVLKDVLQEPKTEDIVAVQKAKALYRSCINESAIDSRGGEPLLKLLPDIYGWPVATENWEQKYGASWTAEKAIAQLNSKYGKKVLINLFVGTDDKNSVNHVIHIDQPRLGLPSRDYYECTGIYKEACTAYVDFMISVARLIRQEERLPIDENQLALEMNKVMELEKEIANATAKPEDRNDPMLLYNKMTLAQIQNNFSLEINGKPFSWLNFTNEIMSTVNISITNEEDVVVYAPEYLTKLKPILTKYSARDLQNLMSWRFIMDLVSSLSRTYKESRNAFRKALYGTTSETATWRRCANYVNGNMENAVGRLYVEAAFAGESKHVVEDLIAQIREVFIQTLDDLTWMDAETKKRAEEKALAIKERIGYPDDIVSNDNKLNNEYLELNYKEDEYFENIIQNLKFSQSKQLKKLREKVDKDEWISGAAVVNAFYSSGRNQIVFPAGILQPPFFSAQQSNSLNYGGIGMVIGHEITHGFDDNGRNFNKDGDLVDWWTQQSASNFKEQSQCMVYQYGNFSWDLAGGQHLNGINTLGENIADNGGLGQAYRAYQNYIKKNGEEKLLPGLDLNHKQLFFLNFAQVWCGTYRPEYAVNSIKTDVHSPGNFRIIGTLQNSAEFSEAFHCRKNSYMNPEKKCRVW

Biological target: human NEP (Homo sapiens, UniProt P08473)
Assay: In vitro enzyme inhibition assay at human NEP (fluorogenic peptide substrate)
Details: recombinant human NEP; substrate Mca-D-Arg-Arg-Leu-Dap-(Dnp)-OH 10 μM; 37° C.; values given as ranges; tested form: TFA salt
Procedure: The inhibitory activities of compounds at human and rat neprilysin (EC 3.4.24.11; NEP) and human angiotensin converting enzyme (ACE) were determined using in vitro assays as described below.
Recombinant human NEP and recombinant human ACE were obtained commercially (R&D Systems, Minneapolis, Minn., catalog numbers 1182-ZN and 929-ZN, respectively). The fluorogenic peptide substrate Mca-D-Arg-Arg-Leu-Dap-(Dnp)-OH (Medeiros et al. (1997) Braz. J. Med. Biol. Res. 30:1157-62; Anaspec, San Jose, Calif.) and Abz-Phe-Arg-Lys(Dnp)-Pro-OH (Araujo et al. (2000) Biochemistry 39:8519-8525; Bachem, Torrance, Calif.) were used in the NEP and ACE assays respectively.
The assays were performed in 384-well white opaque plates at 37° C. using the fluorogenic peptide substrates at a concentration of 10 μM in Assay Buffer (NEP: 50 mM HEPES, pH 7.5, 100 mM NaCl, 0.01% polyethylene glycol sorbitan monolaurate (Tween-20), 10 μM ZnSO4; ACE: 50 mM HEPES, pH 7.5, 100 mM NaCl, 0.01% Tween-20, 1 μM ZnSO4). […]
Plates were read on a fluorometer with excitation and emission wavelengths set to 320 nm and 405 nm, respectively Inhibition constants were obtained by nonlinear regression of the data using the equation (GraphPad Software, Inc., San Diego, Calif.): v=v0/[1+(I/K′)] where v is the reaction rate, v0 is the uninhibited reaction rate, I is the inhibitor concentration and K′ is the apparent inhibition constant. […]

Row | pKi values at human NEP | Structure (SMILES)
1 | 8.0-8.9 | O=C(N[C@H](Cc1ccccc1Cl)[C@@H](O)C(=O)O)c1cc(C(=O)O)n(Cc2ccc(Cl)cc2F)n1
2 | 8.0-8.9 | COc1ccc(Cn2nc(C(=O)N[C@H](Cc3ccccc3)[C@@H](O)C(=O)O)cc2C(=O)O)cc1
